Measurements: patent publication US7348421B1, “Methods for production of p-hydroxybenzoate in bacteria” (North Carolina State University, priority 2000, dated 2008)

How the values were obtained:
DOT-T1E = settings: glucose plates with 0, 3, 6 or 9 g/L pHBA
[1] = tested on: wild-type strain (DOT-T1E); settings: 6, 9, 12 or 15 g/L pHBA; after 50 h of incubation

SMILES: O=C(O)c1ccc(O)cc1 [pHBA, p-hydroxybenzoic acid]
- colony formation on pHBA plates (DOT-T1E): formed colonies in all plates
- cell density after pHBA shock [1]: ≥ 10^9 CFU/mL
